# According to patent US10800753B2, “Tetrahydrothiophene-based GABA aminotransferase inactivators and analogs thereof for treating neurological disorders” (Northwestern University, priority 2015, dated 2020):
# Sequences of proteins named here, by UniProt entry; tags and fusion partners are left off. Residues count along the entry.
# UniProt P80147, 29-500: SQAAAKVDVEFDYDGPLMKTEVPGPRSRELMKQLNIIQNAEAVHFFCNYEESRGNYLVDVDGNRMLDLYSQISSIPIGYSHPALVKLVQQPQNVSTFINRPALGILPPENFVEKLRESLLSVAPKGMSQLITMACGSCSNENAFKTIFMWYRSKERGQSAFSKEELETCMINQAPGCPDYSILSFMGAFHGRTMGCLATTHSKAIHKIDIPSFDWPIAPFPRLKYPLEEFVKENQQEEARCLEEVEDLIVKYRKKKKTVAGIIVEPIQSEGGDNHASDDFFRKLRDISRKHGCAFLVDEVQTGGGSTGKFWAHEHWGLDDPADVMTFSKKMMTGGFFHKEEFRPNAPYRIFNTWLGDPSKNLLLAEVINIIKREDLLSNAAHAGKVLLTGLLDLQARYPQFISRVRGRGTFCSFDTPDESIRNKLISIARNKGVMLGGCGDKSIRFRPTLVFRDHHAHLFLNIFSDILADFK
# Target: GABA aminotransferase (GABA-AT) (Sus scrofa (Pig), UniProt P80147)
# Test: Time-dependent inhibition (inactivation) of GABA-AT, Kitz and Wilson replot
# Type: biochemical
# Conditions: for Ki: inactivation, non-optimal conditions pH 6.5, 25° C.; for efficiency as inactivator of GABA-AT relative to vigabatrin (from kinact/KI): pH 6.5, 25° C.
# Text: GABA-AT was isolated and purified from pig brain by a published procedure.
SMILES,inactivation rate constant relative to that of vigabatrin,Ki,efficiency as inactivator of GABA-AT relative to vigabatrin (from kinact/KI)
"Cl.N[C@@H]1CS[C@H](C(=O)O)C1 [Compound 17, (2S,4S)-4-Aminotetrahydrothiophene-2-carboxylic acid hydrochloride]",~20 times,182 µM,eight times more efficient
"Cl.N[C@@H]1CS[C@@H](C(=O)O)C1 [Compound 18, (2R,4S)-4-Aminotetrahydrothiophene-2-carboxylic acid hydrochloride]",–,2230 µM,half as efficient as vigabatrin
